{"source": "paper PMC9768450", "about": "“Succinyl-CoA:acetate CoA-transferase functioning in the oxidative tricarboxylic acid cycle in Desulfurella acetivorans” (Frontiers in Microbiology, 2022)", "test_system": "CC(=O)O", "assay": "purified protein", "conditions": "co-substrate succinyl-CoA 2 mM, 100 mM Tris-HCl pH 7.8, 5 mM MgCl2, 5 mM DTT, 55 °C"}
{"substance": "succinyl-CoA:acetate CoA-transferase encoded by the AHF96498 gene (AHF96498 gene product) (Desulfurella acetivorans A63)", "values": [{"measurement": "Km", "result": "400 ± 70", "unit": "µM"}, {"measurement": "Vmax", "result": 9, "unit": "µmol/min/mg"}, {"measurement": "kcat/Km", "result": 23000, "unit": "M⁻¹ s⁻¹"}]}
